Measured values reported in ChEMBL document CHEMBL3763121, “Synthesis, biological evaluation and structural analysis of novel peripherally active morphiceptin analogs” (Bioorg Med Chem, 2016).

Amino acid sequences for entries named in this document (tags omitted).
UniProt P35372, whole entry: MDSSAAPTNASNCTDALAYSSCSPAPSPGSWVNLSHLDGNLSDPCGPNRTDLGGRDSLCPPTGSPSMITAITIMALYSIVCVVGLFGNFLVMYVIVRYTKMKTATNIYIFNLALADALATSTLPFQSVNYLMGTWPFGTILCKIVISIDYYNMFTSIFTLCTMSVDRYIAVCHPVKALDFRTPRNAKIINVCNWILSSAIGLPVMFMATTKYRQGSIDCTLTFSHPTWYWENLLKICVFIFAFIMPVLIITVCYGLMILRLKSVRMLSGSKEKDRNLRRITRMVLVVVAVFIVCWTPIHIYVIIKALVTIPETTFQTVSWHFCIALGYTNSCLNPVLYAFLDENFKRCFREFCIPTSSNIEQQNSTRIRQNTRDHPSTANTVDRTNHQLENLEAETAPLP

Target: Mu-type opioid receptor (Homo sapiens, UniProt P35372)
Test: Agonist activity at human recombinant MOR expressed in CHO cells by calcium mobilization assay
Type: functional, cell-based

## C[C@@H](NC(=O)[C@@H](N)Cc1ccc(O)cc1)C(=O)N[C@@H](Cc1ccccc1)C(=O)NCC(=O)N[C@@H](Cc1ccc(O)cc1)C(=O)N1CCC[C@H]1C(=O)N[C@@H](CO)C(N)=O
  EC50: 3.98 nM
